# Read-outs that look alike come from different tables or passages of the source.
# Assays:
# E. coli LEC001 = assay type: cell-based, Escherichia coli; conditions: E. coli LEC001 (R); shown in µM
# Description: (§1) Antimicrobial activity was evaluated against a panel of 18 pathogens consisting of eight Gram-negative strains (E. coli NCTC 12923, E. coli LEC001, Pseudomonas aeruginosa PAO1, P. aeruginosa NCTC 13437, Acinetobacter baumannii ATCC 17978, A. baumannii AYE, Klebsiella pneumoniae M6, K. pneumoniae NCTC 13368), four Gram-positive strains (Staphylococcus aureus ATCC 9144, S. aureus NCTC 13616, S. aureus USA300, S. aureus 1199B) and six fungi (Candida auris TDG 1912, C. albicans NCPF 8018, C. krusei NCPF 3876, C. tropicalis NCPF 8760, and C. parapsilosis NCPF 3209). Pathogens were grown in noncation adjusted Mueller Hinton broth (MHB, for bacteria) or Roswell Park Memorial Institute (RPMI 1640) + 2% glucose (for fungi) at 37 °C with 180 rpm shaking and maintained on solid media (tryptic soy agar for bacteria and Sabouraud dextrose agar for fungi). For an antibiogram, see Suppl.
# (§2) The 46 peptides were serially diluted (128 to 2 μg/mL) in media down polypropylene 96-well plates. […] Plates were incubated at 37 °C for 20 h, and the optical density was determined spectrophotometrically at 600 nm. Minimum inhibition concentrations (MICs) were determined from a minimum of three biological repeats and are reported in μg/mL as well as μM. […]
# E. coli NCTC 12923 = assay type: cell-based, Escherichia coli; conditions: E. coli NCTC 12923 (S); shown in µM
# Description: as §1, §2
# P. aeruginosa NCTC 13437 = assay type: cell-based, Pseudomonas aeruginosa; conditions: P. aeruginosa NCTC 13437 (R); shown in µM
# Description: as §1, §2
# P. aeruginosa PAO1 = assay type: cell-based, Pseudomonas aeruginosa; conditions: P. aeruginosa PAO1 (S); shown in µM
# Description: as §1, §2
# A. baumannii ATCC 17978 = assay type: cell-based, Acinetobacter baumannii; conditions: A. baumannii ATCC 17978 (S); shown in µM
# Description: as §1, §2
# A. baumannii AYE = assay type: cell-based, Acinetobacter baumannii; conditions: A. baumannii AYE (R); shown in µM
# Description: as §1, §2
# K. pneumoniae M6 = assay type: cell-based, Klebsiella pneumoniae; conditions: K. pneumoniae M6 (S); shown in µM
# Description: as §1, §2
# K. pneumoniae NCTC 13368 = assay type: cell-based, Klebsiella pneumoniae; conditions: K. pneumoniae NCTC 13368 (R); shown in µM
# Description: as §1, §2
# S. aureus (MRSA) 1199B = assay type: cell-based, Staphylococcus aureus; conditions: S. aureus (MRSA) 1199B (R); shown in µM
# Description: as §1
# (§3) The 46 peptides were serially diluted (128 to 2 μg/mL) in media down polypropylene 96-well plates. Bacteria or fungi, diluted from an overnight culture to an OD600 of 0.01, were added to the serially diluted peptides at a 1:1 ratio resulting in a starting cell density of ∼5 × 10^5 CFU/mL. Plates were incubated at 37 °C for 20 h, and the optical density was determined spectrophotometrically at 600 nm. Minimum inhibition concentrations (MICs) were determined from a minimum of three biological repeats and are reported in μg/mL as well as μM. […] The MIC50 or MIC90 is defined as the lowest peptide concentration that results in 50% or 90% growth inhibition over a 20 h treatment period, respectively.
# [1] = tested on: S. aureus (MRSA) NCTC 13616; assay type: cell-based, Staphylococcus aureus; conditions: S. aureus (MRSA) NCTC 13616 (R); shown in µM
# Description: as §1, §3
# S. aureus (MRSA) USA300 = assay type: cell-based, Staphylococcus aureus; conditions: S. aureus (MRSA) USA300 (R); shown in µM
# Description: as §1, §3
# [2] = tested on: S. aureus (MSSA) ATCC 9144; assay type: cell-based, Staphylococcus aureus; conditions: S. aureus (MSSA) ATCC 9144 (S); shown in µM
# Description: as §1, §3
# C. auris TDG 1912 = assay type: cell-based, Candida auris
# Description: as §1, §3
# C. albicans NCPF 3281 = assay type: cell-based
# Description: as §1, §3
# C. glabrata NCPF 8018 = assay type: cell-based; conditions: shown in µM
# Description: as §1, §3
# C. krusei NCPF 3876 = assay type: cell-based; conditions: shown in µM
# Description: as §1, §3
# [3] = tested on: C. parapsilosis NCPF 3209; assay type: cell-based
# Description: as §1, §3
# C. tropicalis NCPF 8760 = assay type: cell-based; conditions: shown in µM
# Description: as §1, §3
# human erythrocytes = experiment: In vitro hemolytic activity; assay type: cell-based; conditions: human erythrocytes in PBS, 1 h, 37 °C, OD550; from dose response curves
# Description: Potential erythrocyte hemolysis was tested by incubating serial dilutions of the AMPs in PBS with freshly collected erythrocytes at a ratio of 1:1 in 96-well polypropylene V-shape plates for 1 h at 37 °C. Control wells were treated with 0.1% Triton-X-100 to ensure complete lysis or PBS-only to represent no lysis. The erythrocytes were collected by centrifugation and the OD550 of the supernatant was measured using a plate reader. The percentage hemolysis was calculated as [drawing 1] 1 where Apeptide is the absorbance value of erythrocytes exposed to a known peptide concentration, Agrowth control is the absorbance of erythrocytes exposed to 0.1% Triton-X-100 and Ablank is the absorbance of erythrocytes exposed to the PBS. The concentrations at which a peptide caused 10% (HC10) and 50% (HC50) hemolysis was determined from the dose response curves.
# HaCat cell line = experiment: In vitro HaCat cytotoxicity (MTT); assay type: cell-based, human; conditions: 21 h exposure, OD570, relative to untreated control
# Description: The HaCat cell line (Cellonex, South Africa) was cultured in Dulbecco’s Modified Eagle Medium (DMEM) supplemented with 10% heat-inactivated fetal calf serum (FCS) and 1% antibiotic-antimycotic (Abs) and maintained at 5–10% CO2, 37 °C, 95% humidity. For cytotoxicity screening, 5.56 × 10^4 cells/mL were plated in a 96-well plate. After 24 h incubation, the cells are initially exposed to each peptide at a concentration of 256 μg/mL or 0.1% Triton-X-100 as the control for 21 h. If cytotoxicity was observed, at a level of significance of p < 0.0001 compared with the untreated control after 21 h, a dose-response assay was undertaken. Cell viability was determined by adding 10% 3-(4,5-dimethyl-2-thiazolyl)-2,5-diphenyl-2H-tetrazolium bromide (MTT) (1 mg/mL), to each well and after a further 3 h incubation the media was discarded, and the formazan crystals dissolved by adding 25% DMSO in ethanol. The absorbance was measured at OD570 by using the FLUOstar Omega multidetection microplate reader (BMG Labtech). Percentage cell viability was calculated relative to the untreated control. The LC50 was defined as the concentration of AMP treatment that results in 50% lethality of HaCat cells and was determined from the dose-response curves.
# [4] = 50% growth inhibition, RPMI 1640 + 2% glucose, 37 °C, 20 h
# [5] = 90% growth inhibition, RPMI 1640 + 2% glucose, 37 °C, 20 h
smiles,measurement,setting,value
CC[C@H](C)[C@H](NC(=O)[C@H](C)NC(=O)[C@H](CCCCN)NC(=O)[C@H](CCCNC(=N)N)NC(=O)[C@@H](NC(=O)[C@H](CC(C)C)NC(=O)[C@H](CO)NC(=O)[C@H](Cc1ccccc1)NC(=O)[C@H](CC(C)C)NC(=O)[C@@H](N)Cc1ccccc1)[C@@H](C)CC)C(=O)NCC(=O)NCC(=O)N[C@@H](CC(C)C)C(=O)N[C@H](C(=O)N[C@@H](CO)C(=O)N[C@@H](C)C(=O)N[C@@H](Cc1ccccc1)C(=O)N[C@@H](CCCCN)C(N)=O)[C@@H](C)CC [A3a],Modal MIC,E. coli LEC001,15.7 µM
same,Modal MIC,E. coli NCTC 12923,7.9 µM
same,Modal MIC,P. aeruginosa NCTC 13437,7.9 µM
same,Modal MIC,P. aeruginosa PAO1,15.7 µM
same,Modal MIC,A. baumannii ATCC 17978,3.9 µM
same,Modal MIC,A. baumannii AYE,7.9 µM
same,Modal MIC,K. pneumoniae M6,15.7 µM
same,Modal MIC,K. pneumoniae NCTC 13368,15.7 µM
same,Modal MIC,S. aureus (MRSA) 1199B,3.9 µM
same,Modal MIC,[1],7.9 µM
same,Modal MIC,S. aureus (MRSA) USA300,7.9 µM
same,Modal MIC,[2],7.9 µM
same,Modal MIC50,"C. auris TDG 1912; 50% growth inhibition, RPMI 1640 + 2% glucose, 37 °C, 20 h, OD600",> 128 µg/mL
same,Modal MIC90,"C. auris TDG 1912; 90% growth inhibition, RPMI 1640 + 2% glucose, 37 °C, 20 h, OD600",> 128 µg/mL
same,Modal MIC50,C. auris TDG 1912; shown in µM,> 62.9 µM
same,Modal MIC90,C. auris TDG 1912; shown in µM,> 62.9 µM
same,Modal MIC50,C. albicans NCPF 3281; [4],> 128 µg/mL
same,Modal MIC90,C. albicans NCPF 3281; [5],> 128 µg/mL
same,Modal MIC50,C. albicans NCPF 3281; shown in µM,> 62.9 µM
same,Modal MIC90,C. albicans NCPF 3281; shown in µM,> 62.9 µM
same,Modal MIC50,C. glabrata NCPF 8018,62.9 µM
same,Modal MIC90,C. glabrata NCPF 8018,62.9 µM
same,Modal MIC50,C. krusei NCPF 3876,15.7 µM
same,Modal MIC90,C. krusei NCPF 3876,15.7 µM
same,Modal MIC50,[3]; [4],> 128 µg/mL
same,Modal MIC90,[3]; [5],> 128 µg/mL
same,Modal MIC50,[3]; shown in µM,> 62.9 µM
same,Modal MIC90,[3]; shown in µM,> 62.9 µM
same,Modal MIC50,C. tropicalis NCPF 8760,31.4 µM
same,Modal MIC90,C. tropicalis NCPF 8760,31.4 µM
same,HC10 (concentration causing 10% hemolysis),human erythrocytes,24 µg/mL
same,% HaCat cell death at initial screening (256μg/mL) ± SD,HaCat cell line,100 ± 10.5%
